According to US11602534B2, “Pyrimidine derivative kinase inhibitors” (HEFEI INSTITUTES OF PHYSICAL SCIENCE, CHINESE ACADEMY OF …, priority 2017, dated 2023):

Tested on: TEL-VEGFR2-BaF3
Experiment: Proliferation of TEL-VEGFR2-BaF3 cells, CCK8 cell viability assay
Assay type: cell-based
Conditions: Mus musculus, 72 h, read-out: GI50 TEL-VEGFR2-BaF3
From the text: In this example the following cells were used: […] (purchased from ATCC), mouse P210-BaF3 (stably expressing BCR-ABL mutant activated kinase), mouse P210/T315I-BaF3 (stably expressing BCR-ABL/T315I mutant activated kinase), mouse FLT3-ITD-BaF3 (stably expressing FLT3/ITD mutant activated kinase), mouse TEL-FLT3-BaF3 (stably expressing FLT3 kinase), mouse TEL-cKIT-BaF3 (stably expressing cKIT kinase), mouse BaF3-tel/T670I-cKit (stably expressing cKIT/T670I mutant activated kinase), mouse Tel-VEGFR2-BaF3 (stably expressing VEGFR2 kinase), mouse Tel-PDGFRα-BaF3 (stably expressing PDGFRα kinase), mouse Tel-PDGFRβ-BaF3 (stably expressing PDGFRβ kinase), mouse Tel-RET-BaF3 (stably expressing RET kinase). The above cell lines were all constructed by our laboratory according to the following method: the kinase region sequences of human P210, P210/T315I, FLT3/ITD, FLT3, cKIT, cKIT/T670I, VEGFR2, PDGFRα, PDGFRβ, RET were respectively amplified by PCR, and inserted into MSCV-Puro vectors having N-terminal TEL or TPR fragments (Clontech). […]
GI50 (unit: μM) was calculated by quantifying the number of living cells based on quantitative measurement of reductive dehydrogenase in living cells with CCK8 cell viability assay kit (Bestbio, China).

## CNC(=O)c1cc(Oc2ccc(NC(=O)Nc3ccc(Cl)c(C(F)(F)F)c3)cc2)ccn1 [Sorafenib, reference compound]
  GI50: 33 nM
